Laboratory results reported in patent US9238651B2, “1-H-pyrrolo[2,3-b]pyridine derivatives” (Merck Patent GmbH, priority 2010, dated 2016).

Chains of the proteins cited; added tags and fusions are not shown. Residues count along the entry.
UniProt O15530, 51-556: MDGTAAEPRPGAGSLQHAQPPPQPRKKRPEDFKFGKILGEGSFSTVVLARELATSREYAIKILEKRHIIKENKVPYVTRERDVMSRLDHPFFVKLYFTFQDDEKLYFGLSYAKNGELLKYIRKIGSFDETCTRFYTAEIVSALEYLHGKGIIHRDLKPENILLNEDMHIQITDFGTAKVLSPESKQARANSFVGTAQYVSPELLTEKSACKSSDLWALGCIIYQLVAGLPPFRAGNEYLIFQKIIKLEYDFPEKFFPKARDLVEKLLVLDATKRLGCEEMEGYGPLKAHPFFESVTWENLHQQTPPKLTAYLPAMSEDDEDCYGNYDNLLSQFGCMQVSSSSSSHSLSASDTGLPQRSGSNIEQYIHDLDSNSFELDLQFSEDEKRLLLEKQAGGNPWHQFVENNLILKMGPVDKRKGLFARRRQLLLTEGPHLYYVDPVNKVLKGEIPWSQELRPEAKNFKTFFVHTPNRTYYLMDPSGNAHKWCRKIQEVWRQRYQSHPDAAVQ

Assays:
PDK1 [1] = target: T1, PDK1 (Homo sapiens (Human), UniProt O15530); experiment: Test for the inhibition of PDK1 (enzymatic flashplate assay); format: biochemical; settings: His6-PDK1(Δ1-50), 4 μM ATP
Experimental: 4. Test for the Inhibition of PDK1
The experimental batches are carried out in a flashplate system with 384 wells/microtitration plate.
The test substances are employed in corresponding concentrations (if desired in a dilution series). The control is carried out without test substance. The reaction is stopped using standard methods and washed. The activity of the kinase is measured via the incorporated radioactivity in top count. In order to determine the non-specific kinase reaction (blank value), the experimental batches are carried out in the presence of 100 nM staurosporine.
The radioactivity (decompositions per minute) of the blank value (no use of test substance in the presence of staurosporine) is subtracted from all other radioactivity values. The controls (kinase activity without test substance) are set equal to 100 percent and all other radioactivity values (after subtracting the blank value) are expressed set in relation thereto (for example in % of the control).

PDK1 [2] = target: T1, PDK1; experiment: Cellular testing of PDK1 kinase inhibitors in PC3 cells (Luminex, phospho-T308-PKB); format: cell-based
Experimental: Method for the Cellular Testing of PDK1 Kinase Inhibitors in PC3 Cells
The cellular assay for the determination of the PDK1 kinase activity is carried out as a Luminex assay in the 96-well format. PC3 cells are sown at 20,000 cells per well in 100 μl of medium (45% of […]/45% of Ham's F12/10% of FCS) and incubated on the following day for 30 min with a serial dilution of the test substance (7 concentrations) under serum-free conditions. The cells are subsequently lysed using 90 μl of lysis buffer (20 mM tris/HCl pH 8.0, 150 mM NaCl, 1% of NP40, 10% of glycerol, 1% of phosphatase inhibitor I, 1% of phosphatase inhibitor II, 0.1% of protease inhibitor cocktail III, 0.01% of benzonase) per well, and the lysates are separated off from insoluble cell constituents by means of centrifugation through a 96-well filter plate (0.65 μm). The lysates are incubated overnight at 4° C. with shaking with Luminex beads to which an anti-total PKB antibody is coupled. The detection is carried out on the following day by addition of a phospho-T308-PKB antibody and a species-specific peroxidase-labelled secondary antibody. […] The values of the batches treated with test substance are calculated therefrom as percentage of control, and IC50 values are determined by means of RS1.

IC50 (PDK1 [1]): 0.017 µM | IC50 (PDK1 [2]): 23 µM
Structure (SMILES): Cn1cc(-c2cnc3[nH]cc(-c4cc(N(CCC(N)=O)c5ccccc5)nc(N)n4)c3c2)cn1 [A35, 3-({2-Amino-6-[5-(1-methyl-1H-pyrazol-4-yl)-1H-pyrrolo[2,3-b]-pyridin-3-yl]pyrimidin-4-yl}phenylamino)propionamide]
